Biological target: JAK1 (Homo sapiens (Human), UniProt P23458)
Assay: Assay A, JAK1 IC50 at 1 mM ATP
Type: biochemical
Conditions: method of Assay A at 1 mM ATP; #3 data for enantiomer 1, #14 data for enantiomer 2

By UniProt entry, the sequences of proteins in these tests, tags left out.
UniProt P23458, whole entry, species assumed: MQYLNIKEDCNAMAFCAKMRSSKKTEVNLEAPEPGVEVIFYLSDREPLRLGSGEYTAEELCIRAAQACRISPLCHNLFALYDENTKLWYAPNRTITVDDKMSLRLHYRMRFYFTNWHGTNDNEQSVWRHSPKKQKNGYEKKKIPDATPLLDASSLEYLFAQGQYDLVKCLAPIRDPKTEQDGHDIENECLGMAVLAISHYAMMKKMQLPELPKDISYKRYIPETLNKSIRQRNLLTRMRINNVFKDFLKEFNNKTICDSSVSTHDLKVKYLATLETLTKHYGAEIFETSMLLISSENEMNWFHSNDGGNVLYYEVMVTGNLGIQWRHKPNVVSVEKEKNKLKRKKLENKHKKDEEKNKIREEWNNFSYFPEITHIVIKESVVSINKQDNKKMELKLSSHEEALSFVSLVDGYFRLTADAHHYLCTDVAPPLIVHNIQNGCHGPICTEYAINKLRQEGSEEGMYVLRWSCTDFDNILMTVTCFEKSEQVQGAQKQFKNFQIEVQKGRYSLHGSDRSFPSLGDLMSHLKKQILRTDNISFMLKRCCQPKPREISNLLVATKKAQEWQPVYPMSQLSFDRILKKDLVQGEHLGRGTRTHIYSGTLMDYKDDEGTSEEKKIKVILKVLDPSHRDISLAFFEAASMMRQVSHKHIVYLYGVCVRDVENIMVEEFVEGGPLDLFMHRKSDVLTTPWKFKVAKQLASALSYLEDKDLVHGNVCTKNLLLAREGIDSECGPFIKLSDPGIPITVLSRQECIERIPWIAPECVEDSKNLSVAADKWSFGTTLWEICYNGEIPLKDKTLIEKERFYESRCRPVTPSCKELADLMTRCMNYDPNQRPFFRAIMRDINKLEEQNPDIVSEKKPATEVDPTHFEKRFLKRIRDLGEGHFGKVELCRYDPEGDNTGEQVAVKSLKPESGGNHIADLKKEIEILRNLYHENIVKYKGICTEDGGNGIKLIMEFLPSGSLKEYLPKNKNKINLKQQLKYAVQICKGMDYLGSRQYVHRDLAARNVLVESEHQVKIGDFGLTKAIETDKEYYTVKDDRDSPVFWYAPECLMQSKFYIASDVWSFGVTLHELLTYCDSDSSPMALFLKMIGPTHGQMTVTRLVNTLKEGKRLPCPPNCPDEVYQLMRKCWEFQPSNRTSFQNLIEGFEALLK

SMILES: CN(C)Cc1cc(F)cc(OC2CCN(CC(CC#N)n3cc(-c4ncnc5[nH]ccc45)cn3)CC2)c1 (single isomer, unassigned) [Example 14, 4-(4-{3-[(dimethylamino)methyl]-5-fluorophenoxy}piperidin-1-yl)-3-[4-(7H-pyrrolo[2,3-d]pyrimidin-4-yl)-1H-pyrazol-1-yl]butanenitrile]
- IC50: < 0.01 µM

Source: patent US10336759B2, “Salts and processes of preparing a PI3K inhibitor” (Incyte Corporation, priority 2015, dated 2019)
